From patent publication US20200171165A1, “ENHANCED TARGETED DELIVERY OF THERAPEUTIC AGENTS” (Proteogenomics Research Institute for Systems Medicine, priority 2018, published 2020) come the findings set out here.

The assay concerns human BT474 (HER2 positive) cells. Put plainly: IVM model of human BT474 breast tumors in human donor mammary tissue: tumor growth. It counts as in vivo. As to conditions: 5 mg/kg, antibody alone.

Consider “Herceptin: therapeutic antibody binding HER2 growth factor receptors”, for which the “Tumor growth over 14 days” value is “slowed growth”.
